In patent US12622944B2, “Compositions containing, methods involving, and uses of non-natural amino acid linked dolastatin derivatives” (priority 2011, dated 2026):

How the values were obtained:
BT474 = test: In vitro inhibition of proliferation assay (WST-8), BT474; type: cell-based
Protocol: (§1) At day 1, the cells were seeded. The media was aspirated and the T-225 culture flasks of cells was rinsed with 30 mL PBS−/. PBS was aspirated and 6 mL of 0.25% Trypsin-EDTA was added to each flask. The flasks were incubated at 37° C., 5% CO2 for 2-5 minutes. Adherent cells were dislodged by hitting flask and trypsin was neutralized by adding 14 mL culture medium. The cell suspension was mixed and transferred to a 50 mL conical tube. The cells were spun down at 1200 rpm, 5 min, room temperature. The resultant cell pellet was resuspended in 12 mL of culture medium. The cells were counted in a hemacytometer. Cells were seeded at appropriate cell densities into 96-well flat-bottom, clear plates and incubated overnight at 37° C., 5% CO2 to allow cells to attach. Plating volume was 80 uL/well. 80 uL/well of culture medium was utilized as the “no cell” control.
(§2) Cell plating density examples include: • BT474 (high Her2)—20,000 cells/well in F12k/DMEM (50/50), 10% FBS, P/S • MDA-MB-468 (Her2 negative)-6,000 cells/well in F12k/DMEM (50/50), 10% FBS, P/S • HCC1954—5,000 cells/well in RPMI 1640, 10% FBS, P/S • SKOV-3—6,000 cells/well in RPMI 1640, 10% FBS, P/S • HT29—20,000 cells/well in McCoy's 5A, 10% FBS, P/S
(§3) At day 2, the test samples were added to the cells. The test samples were diluted in culture medium to a 9× stock concentration in Column 2 of a round-bottom 96-well plate. 3× serial dilutions were made from Column 2 to Column 11 with a multi-channel pipettor. 10 uL/well of the above samples was added in duplicate to the appropriate wells of the seeded plate. The total volume in the wells was about 90 uL/well. 10 uL/well of culture medium was added to avoid edge effects for sample wells. Media Control wells were included in the inner wells where no sample was added (just 10 uL/well of culture medium) to be used in proliferation calculations. The plates were incubated at 37° C., 5% CO2 for 72 hrs.
(§4) At day 5, proliferation readout occurred. […] The plates were measured for absorbance at OD 450 nm. […]

HCC1954 = test: In vitro inhibition of proliferation assay (WST-8), HCC1954; type: cell-based, human; details: read-out: IC50 Values [nM] after 72 hr drug treatment
Protocol: as §1, §2
(§5) At day 2, the test samples were added to the cells. […]
as §4

LS513 = test: In vitro inhibition of proliferation assay (WST-8), LS513; type: cell-based; details: Data Set I, experiment Sept. 4, 2010, read-out: IC50 Values [nM] after 72 hr drug treatment
Protocol: as §1
(§6) At day 2, the test samples were added to the cells. The test samples were diluted in culture medium to a 9× stock concentration in Column 2 of a round-bottom 96-well plate. 3× serial dilutions were made from Column 2 to Column 11 with a multi-channel pipettor. 10 uL/well of the above samples was added in duplicate to the appropriate wells of the seeded plate. The total volume in the wells was about 90 uL/well. […]
as §4

NCI-N87 = test: In vitro inhibition of proliferation assay (WST-8), NCI-N87; type: cell-based; details: Data Set I, experiment Sept. 4, 2010, read-out: IC50 Values [nM] after 72 hr drug treatment
Protocol: as §1, §6, §4

SKOV-3 = test: In vitro inhibition of proliferation assay (WST-8), SKOV-3; type: cell-based
Protocol: as §1, §2, §3, §4

ZR-75-30 = test: In vitro inhibition of proliferation assay (WST-8), ZR-75-30; type: cell-based; details: Data Set I, experiment Sept. 4, 2010, read-out: IC50 Values [nM] after 72 hr drug treatment
Protocol: as §1, §6, §4

MDA-MB-175 = test: In vitro inhibition of proliferation assay (WST-8), MDA-MB-175; type: cell-based; details: Data Set I, experiment Sept. 13, 2010, read-out: IC50 Values [nM] after 72 hr drug treatment
Protocol: as §1, §6, §4

HT29 = test: In vitro inhibition of proliferation assay (WST-8), HT29; type: cell-based; details: Data Set II, experiment Sept. 24, 2010, read-out: IC50 Values [nM] after 72 hr drug treatment
Protocol: as §1, §2, §5, §4

MDA-MB-468 = test: In vitro inhibition of proliferation assay (WST-8), MDA-MB-468; type: cell-based; details: Data Set II, experiment Oct. 8, 2010, read-out: IC50 Values [nM] after 72 hr drug treatment
Protocol: as §1, §2, §5, §4

[1] = tested on: HCC1954 (human breast carcinoma) xenograft; test: In vivo anti-tumor efficacy in HCC1954 xenograft, SCID-bg mice; details: day 28, HCC1954 study
Protocol: HCC1954 (human breast carcinoma) cells were obtained from American Type Culture Collection (Manassas, VA) and cultured in RPMI+10% FBS, 37° C., 5% CO2 until 80% confluent. Cells were harvested by trypsinization and suspended in PBS at 1×10^8 cells/mL.
Female, SCID-beige mice, 5-8 weeks old, were obtained from Charles River Laboratories. HCC1954 cells (human, breast carcinoma, ATCC, #CRL-2338) were mixed 1:1 with Matrigel (BD Biosciences, Bedford MA) and injected subcutaneously into the mice. When tumors reached an average size of 100-200 mm^3, mice were sorted into groups of 9-10 mice each. Caliper measurements were taken twice weekly until the end of the study. To estimate tumor volume, two orthogonal diameters were measured with calipers and the values entered into the formula, (L×W×W)/2=V, (where W=the shortest diameter, L=the longest diameter and V-volume), to obtain an estimated volume. The tumor volume was converted to tumor weight in the Excel data file by assuming 1 mm^3=1 mg. Endpoint was based on a study design of tumor growth inhibition (TGI). When the mean tumor volume of the control group reached approx. 1,000 mm^3 all mice were euthanized or day 28, whichever came first.
Mice were given a single IV injection (tail vein) on day 1 of dosing. Test article was dissolved at 4 mg/mL, 2 mg/mL and 0.66 mg/mL and administered at a dose volume of 5 mL/kg to deliver 20, 10 and 3.3 mg/kg. Test articles were: Herceptin® clinical grade (Trastuzumab), Her2-HS122-NCD1 (Ab:Drug ratio=1:2, non-cleavable linker), and Her2-HS122/LK145-HCD1 (Ab:Drug ratio=1:4, cleavable linker) See FIG. 16.
HCC1954 cells were utilized for this study with 10 cells/mouse in Matrigel, SC in the right flank. Mice were SCID-bg female 4-8 weeks. Grouping was performed at day 5 after cell implantation (tumors˜100 mm^3): sorted into 11 groups of 10 mice each. A single IV dose was given on day 1 of dosing with each compound at 3 dose levels, 20 mg/kg, 10 mg/kg and 3.3 mg/kg. Tumor volume was monitored until the endpoint was reached (1,000 mm^3 or 60 days). (FIG. 10) Paclitaxel 25 mg/kg, IV, qod×5 was employed as the control chemotherapy. The vehicle=50 mM histamine, 0.1 M NaCl, 5% trehalose, pH 6. Herceptin® clinical grade (Trastuzumab), Her2-14S122-NCD1 (non-cleavable linker) and Her2-HS122/LK145-HCD1 (cleavable linker) were tested. (FIGS. 11 and 12)

[2] = Data Set I, experiment Sept. 4, 2010, read-out: IC50 Values [nM] after 72 hr drug treatment
[3] = Data Set I, experiment Sept. 13, 2010, read-out: IC50 Values [nM] after 72 hr drug treatment

Herceptin: Herceptin clinical grade (Trastuzumab), humanized monoclonal antibody that binds HER2/neu receptor
IC50 (BT474; [2]): > 300 nM
IC50 (BT474; [3]): > 300 nM
IC50 (BT474; Data Set II, experiment Sept. 24, 2010, read-out: IC50 Values [nM] after 72 hr drug treatment): > 300 nM
IC50 (HCC1954; HCC1954, Data Set I, experiment Sept. 4, 2010): > 300 nM
IC50 (HCC1954; HCCI954, Data Set II, experiment Oct. 8, 2010): > 300 nM
IC50 (LS513): > 300 nM
IC50 (NCI-N87): > 300 nM
IC50 (SKOV-3; [2]): > 300 nM
IC50 (SKOV-3; [3]): > 300 nM
IC50 (SKOV-3; Data Set II, experiment Oct. 8, 2010, read-out: IC50 Values [nM] after 72 hr drug treatment): > 300 nM
IC50 (ZR-75-30): > 300 nM
IC50 (MDA-MB-175): > 300 nM
IC50 (HT29): > 300 nM
IC50 (MDA-MB-468): > 300 nM
Median Tumor Volume (mm3) ([1]; 3.3 mg/kg iv qd × 1): 405 mm3
T/C (Treated/Control) ([1]; 3.3 mg/kg iv qd × 1): 0.833
Median Tumor Volume (mm3) ([1]; 10 mg/kg iv qd × 1): 446 mm3
T/C (Treated/Control) ([1]; 10 mg/kg iv qd × 1): 0.918
Median Tumor Volume (mm3) ([1]; 20 mg/kg iv qd × 1): 385 mm3
T/C (Treated/Control) ([1]; 20 mg/kg iv qd × 1): 0.792

Read-outs that look alike come from different tables or passages of the source.
